# From PubChem BioAssay AID588664 (The Scripps Research Institute Molecular Screening Center, 2011)
# The chains behind the UniProt entries cited, without tags or fusion partners. Where a name states a change or a piece, a line headed by the entry shows the natural chain unless it says otherwise.
# UniProt P00519, whole entry, looked up: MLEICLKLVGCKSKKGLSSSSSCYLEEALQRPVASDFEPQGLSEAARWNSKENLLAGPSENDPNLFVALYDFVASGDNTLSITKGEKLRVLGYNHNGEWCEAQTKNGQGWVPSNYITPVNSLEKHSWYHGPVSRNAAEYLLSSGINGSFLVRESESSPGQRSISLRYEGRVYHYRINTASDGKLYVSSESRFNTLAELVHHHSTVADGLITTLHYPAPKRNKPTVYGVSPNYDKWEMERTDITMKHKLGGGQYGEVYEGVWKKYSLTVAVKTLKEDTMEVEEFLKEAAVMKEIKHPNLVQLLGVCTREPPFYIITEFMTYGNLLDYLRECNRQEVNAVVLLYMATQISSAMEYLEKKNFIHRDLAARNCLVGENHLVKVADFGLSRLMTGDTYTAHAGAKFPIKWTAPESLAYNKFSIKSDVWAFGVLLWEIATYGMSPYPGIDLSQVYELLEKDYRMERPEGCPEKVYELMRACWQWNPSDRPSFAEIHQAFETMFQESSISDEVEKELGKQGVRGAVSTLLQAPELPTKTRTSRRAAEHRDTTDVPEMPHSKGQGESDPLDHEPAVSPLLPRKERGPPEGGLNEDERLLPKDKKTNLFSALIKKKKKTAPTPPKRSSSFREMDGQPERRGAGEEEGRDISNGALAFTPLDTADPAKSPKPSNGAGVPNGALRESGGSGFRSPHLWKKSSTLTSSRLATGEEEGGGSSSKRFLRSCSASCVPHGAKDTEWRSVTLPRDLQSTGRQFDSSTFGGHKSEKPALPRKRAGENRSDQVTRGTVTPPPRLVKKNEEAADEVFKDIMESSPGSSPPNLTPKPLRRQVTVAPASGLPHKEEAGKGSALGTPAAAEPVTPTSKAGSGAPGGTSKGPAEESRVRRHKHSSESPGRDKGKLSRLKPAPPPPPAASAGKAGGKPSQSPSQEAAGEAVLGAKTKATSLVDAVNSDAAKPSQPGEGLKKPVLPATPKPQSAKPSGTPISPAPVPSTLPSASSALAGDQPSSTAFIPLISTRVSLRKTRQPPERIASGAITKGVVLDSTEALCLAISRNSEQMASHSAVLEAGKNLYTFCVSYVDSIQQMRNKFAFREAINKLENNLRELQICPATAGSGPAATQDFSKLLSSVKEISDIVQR
# UniProt Q13671: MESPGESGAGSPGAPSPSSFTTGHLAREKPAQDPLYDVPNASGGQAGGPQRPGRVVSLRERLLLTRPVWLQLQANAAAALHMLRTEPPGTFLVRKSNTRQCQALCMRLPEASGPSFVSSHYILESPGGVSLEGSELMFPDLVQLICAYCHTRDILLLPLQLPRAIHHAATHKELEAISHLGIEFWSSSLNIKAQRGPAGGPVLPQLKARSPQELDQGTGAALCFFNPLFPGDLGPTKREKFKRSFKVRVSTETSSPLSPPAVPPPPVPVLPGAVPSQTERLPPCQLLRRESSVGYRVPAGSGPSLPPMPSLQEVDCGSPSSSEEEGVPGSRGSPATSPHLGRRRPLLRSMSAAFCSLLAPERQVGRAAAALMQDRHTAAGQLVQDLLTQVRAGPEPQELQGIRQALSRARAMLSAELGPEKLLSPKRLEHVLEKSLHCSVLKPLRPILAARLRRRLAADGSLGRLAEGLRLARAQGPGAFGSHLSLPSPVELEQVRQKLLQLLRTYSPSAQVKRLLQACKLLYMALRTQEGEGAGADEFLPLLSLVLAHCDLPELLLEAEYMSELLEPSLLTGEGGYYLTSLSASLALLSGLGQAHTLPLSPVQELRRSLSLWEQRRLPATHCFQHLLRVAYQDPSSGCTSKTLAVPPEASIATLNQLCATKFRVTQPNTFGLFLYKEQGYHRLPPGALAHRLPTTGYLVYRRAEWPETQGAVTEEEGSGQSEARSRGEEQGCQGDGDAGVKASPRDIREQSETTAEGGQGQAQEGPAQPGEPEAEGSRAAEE
# The entries are a selection whose mix differs from that of the whole data set. Activity calls are given as the source filed them. Rule as the data show it: active = inhibition above about 5% (passing the limit was not always enough); inactive = the rest.
# Biological target: Tyrosine-protein kinase ABL1 (Homo sapiens) + Ras and Rab interactor 1 (Homo sapiens) (UniProt P00519+Q13671)
# Assay: disruptors of human Abl and Rin1 association – biochemical, TR-FRET, primary screen (AID 588664)
# Settings: TR-FRET Rin1/Abl binding, at 7.35 µM, active compounds read high
row,SMILES,inhibition
1,Nc1ccccc1[As](=O)(O)c1ccccc1,inactive: 1.59%
2,O=C(O)COc1ccc([As](=O)(O)O)cc1[N+](=O)[O-],inactive: 2.04%
3,O=P(Nc1nccs1)(c1ccccc1)c1nc2ccccc2s1 (configuration not stated),inactive: -0.99%
4,O=P(Nc1nccs1)(Oc1ccccc1)Oc1ccccc1,inactive: 2.33%
5,CCOP1(=S)c2c(C)nn(CCC#N)c2N=C(c2ccccc2F)N1C (configuration not stated),inactive: -2.2%
6,CS(=O)(=O)c1cc([N+](=O)[O-])c2no[n+]([O-])c2c1,inactive: -5.65%
7,O=[N+]([O-])c1cc([N+](=O)[O-])c(-c2ccn[nH]2)s1,inactive: -1.65%
8,CCN(CC)C(=S)SC(NC=O)C(Cl)(Cl)Cl (configuration not stated),inactive: 1.62%
9,O=C(OC1CN2CCC1CC2)c1cccc2[nH]cnc12 (configuration not stated),inactive: 0.95%
10,CC(C)NC(=O)NP(=O)(Oc1ccccc1)Oc1ccccc1,inactive: 5.42%
11,ClCCSc1nnc(-c2cccnc2)o1,inactive: 3.34%
12,CC(C)c1ccc(OP(=O)(Nc2ccccn2)Oc2ccccc2F)cc1 (configuration not stated),inactive: 2.72%
13,COC(=O)C1(C)COP(=O)(N2CCCCCC2)OC1 (configuration not stated),inactive: 1.88%
14,Cc1ccc(OP(=O)(Nc2ccc([N+](=O)[O-])cn2)Oc2ccc(C)cc2)cc1,inactive: -2.02%
15,Cc1ccc2nc3c(c(C)c2c1)CC(C(Cl)Cl)S3 (configuration not stated),inactive: -5.47%
16,COc1cc(C(=O)NCC2(N3CCOCC3)CCCCC2)ccc1OCC(C)C,inactive: 3.94%
17,O=[N+]([O-])c1ccc(-c2cc([N+](=O)[O-])c(O)c([N+](=O)[O-])c2)cc1,inactive: 1.79%
18,C[As](=O)(O)c1cccc(C(=O)O)c1,inactive: 0.4%
19,O=[As](O)(c1ccc(O)cc1)c1ccccc1O,inactive: -2.13%
20,O=[N+]([O-])c1cc(Oc2ccc([N+](=O)[O-])cc2C(F)(F)F)cc([N+](=O)[O-])c1,inactive: 1.81%
21,COc1ccc(N/C(=N/P(=O)(N2CCOCC2)N2CCOCC2)N2CCOCC2)cc1,inactive: 0.19%
22,O=P1(N(CCCl)CCCl)Nc2ccccc2N1,inactive: 4.78%
23,O=P1(N(CCCl)CCCl)OCCCN1CCCl (configuration not stated),inactive: -2.33%
24,COc1cc(I)ccc1[As](=O)(O)O,inactive: -4.01%

row,SMILES,inhibition
1,COc1ccc2nc(NP(=O)(c3ccccc3)c3ccccc3)sc2c1,inactive: -1.65%
2,Cc1c2c(nc3ccccc13)SC(C(Cl)Cl)C2 (configuration not stated),inactive: 1.52%
3,Cc1cc(=O)[nH]c(N[N+](=O)[O-])n1,inactive: 0.33%
4,O=C(OC1CN2CCC1CC2)C12CC3CC(CC(C3)C1)C2 (configuration not stated),inactive: 1.14%
5,CCC(C)N(CC(C)C)C(=S)SC(NC(C)=O)C(Cl)(Cl)Cl (configuration not stated),inactive: 1.44%
6,CSc1ccc(Nc2c([N+](=O)[O-])cc([N+](=O)[O-])cc2[N+](=O)[O-])cc1,inactive: -5.52%
7,O=C(OC1CN2CCC1CC2)c1cccc([N+](=O)[O-])c1 (configuration not stated),inactive: -1.74%
8,CCOC(=O)c1ccc(NC(=O)C(C)(CCl)SC)cc1 (configuration not stated),inactive: -2.78%
9,O=C(O)C(=O)c1ccc(N(CCCl)CCCl)cc1,inactive: -5.33%
10,O=C(Nc1ccncc1[N+](=O)[O-])c1ccc([N+](=O)[O-])cc1[N+](=O)[O-],inactive: -0.23%
11,O=C(COc1ccccc1)OC1CN2CCC1CC2 (configuration not stated),inactive: -3.9%
12,COC(=O)C1(C)COP(=O)(N2CCCC2)OC1 (configuration not stated),inactive: 4.16%
13,COP1(=S)c2c(C)nn(CCC#N)c2N=C(c2ccc(F)cc2)N1C (configuration not stated),inactive: 0.27%
14,O=P(Nc1ccccn1)(c1cccc2ccccc12)c1cccc2ccccc12,inactive: 5.67%
15,Cc1cc(SC(NC=O)C(Cl)(Cl)Cl)ncn1 (configuration not stated),inactive: 0.78%
16,O=[N+]([O-])c1ccc(Nc2ccc(Oc3ccc([N+](=O)[O-])cc3[N+](=O)[O-])cc2)c([N+](=O)[O-])c1,inactive: 1.14%
17,CCOC(=O)Nc1cccc([As](=O)(O)O)c1,inactive: 1.92%
18,COP(=O)(OC)N1CC1c1ccccc1 (configuration not stated),inactive: -3.52%
19,Cc1cc(SC(NC(=O)c2ccccc2)C(Cl)(Cl)Cl)nc(C(C)C)n1 (configuration not stated),inactive: 2.78%
20,CCCCOc1ccc(C(=O)NCC2(N3CCCCC3)CCCCC2)cc1OC,inactive: 1.28%
21,CCOC(=O)Nc1ccc([As](=O)(O)O)c(O)c1,inactive: -2.73%
22,O=C(O)C(O)c1ccc(N(CCCl)CCCl)cc1 (configuration not stated),inactive: -0.41%
23,CC1CCNP(=O)(N(CCCl)CCCl)O1 (configuration not stated),inactive: 1.92%
